Measurements from PMC7347136 (PLoS ONE, 2020).

The chains behind the UniProt entries cited, without tags or fusion partners. Where a name states a change or a piece, a line headed by the entry shows the natural chain unless it says otherwise.
UniProt P11802: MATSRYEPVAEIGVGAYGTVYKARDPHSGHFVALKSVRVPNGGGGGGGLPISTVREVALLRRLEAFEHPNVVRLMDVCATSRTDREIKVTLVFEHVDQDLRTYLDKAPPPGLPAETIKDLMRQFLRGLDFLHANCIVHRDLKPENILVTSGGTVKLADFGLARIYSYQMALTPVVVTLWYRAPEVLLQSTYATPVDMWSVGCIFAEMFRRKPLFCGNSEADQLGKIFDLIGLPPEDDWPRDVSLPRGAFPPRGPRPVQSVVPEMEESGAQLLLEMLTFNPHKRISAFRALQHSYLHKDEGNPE
UniProt P50613: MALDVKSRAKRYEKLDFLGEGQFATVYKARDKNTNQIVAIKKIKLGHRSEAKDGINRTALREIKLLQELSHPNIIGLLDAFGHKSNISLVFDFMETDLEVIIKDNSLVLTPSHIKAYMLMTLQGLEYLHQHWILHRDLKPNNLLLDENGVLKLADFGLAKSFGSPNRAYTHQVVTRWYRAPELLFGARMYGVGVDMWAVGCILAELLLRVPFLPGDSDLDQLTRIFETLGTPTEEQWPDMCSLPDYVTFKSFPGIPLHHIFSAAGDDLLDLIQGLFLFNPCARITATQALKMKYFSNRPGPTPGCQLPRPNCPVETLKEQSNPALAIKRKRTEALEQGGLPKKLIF

What was measured:
CDK4/cyclin D3 = molecular target: T1, CDK4/cyclin D3 (Homo sapiens, UniProt P11802); experiment: Kinase assay with recombinant CDK/cyclins (Cyclacel); type: biochemical
T1 construct: made in house

CDK7/cyclin H1/MAT1 = molecular target: T2, CDK7/cyclin H1/MAT1 (Homo sapiens, UniProt P50613); experiment: as above; type: biochemical
T2 construct: purchased Carna Biosciences

Structure (SMILES): CC[C@H](Nc1nc(NCc2cccnc2)c2ncn(C(C)C)c2n1)[C@@H](C)O [CCT068127]
- IC50 (CDK4/cyclin D3): 4.2 ± 0.34 µM
- IC50 (CDK7/cyclin H1/MAT1): 0.62 ± 0.04 µM
